Results published in US20250195673A1 (priority 2020, published 2025).
Like-named read-outs stand apart in the source and are kept apart here.

Molecular target: soluble TfR ectodomain (Homo sapiens, UniProt P02786)

Substance | binding to TfR ectodomain (SPR response) | binding to TfR ectodomain (SPR response) (listed as holo-transferrin)
holo-transferrin [holo Tf] | binds | demonstrated any interaction
apo-transferrin [apo Tf] | does not | –
